# Earlier results as cited in article PMC5718994, “Synthesis and analytical characterization of new thiazol-2-(3H)-ones as human neutrophil elastase (HNE) inhibitors” (Chemistry Central Journal, 2017).
# System: HNE
# Settings: HNE inhibitor, Fig. 1; cited from earlier work
smiles,measurement,value
CC(C)(C)C(=O)Oc1ccc(S(=O)(=O)Nc2ccccc2C(=O)NCC(=O)O)cc1 [Sivelestat],IC50,44 nM
